The source of these data is IntAct's records for PubMed 12861019.

First the molecules themselves.
B1: E3 ubiquitin-protein ligase RNF5 (Homo sapiens), Q99942 (parent)
chain: MAAAEEEDGGPEGPNRERGGAGATFECNICLETAREAVVSVCGHLYCWPCLHQWLETRPERQECPVCKAGISREKVVPLYGRGSQKPQDPRLKTPPRPQGQRPAPESRGGFQPFGDTGGFHFSFGVGAFPFGFFTTVFNAHEPFRRGTGVDLGQGHPASSWQDSLFLFLAIFFFFWLLSI

The variants in the experiment derive from B1. The settings on record: with paxi_human PXN.
Turning to C27A;C30A, the “effect of a mutation on the interaction” value is on record as “increasing interaction”.
